# Compound activity from PubChem BioAssay.
# Rango complex inh: qHTS Assay for Inhibitors of Rango (Ran-regulated importin-beta cargo) - Importin beta complex formation; Rango CFP/YFP FRET sensor + importin beta, 45 min; Potency, µM (titrated, usually from 92.2 µM); actives 0.031% (n = 340,000); further: nearly all actives have a fitted effect of over 15% in size
#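 FRET biosensor (snurportin 1 IBB flanked by EYFP and cerulean), 50 nM, with compound 5 min, then 0.125 microM importin beta in PBS, 1 mM DTT, 0.02% Tween-20, 0.1% BSA. CFP/YFP ratio read after 45 min at room temperature; pre-read flags interference.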
# Rango dissoc inh: qHTS Assay for Inhibitors of RanGTP induced Rango (Ran-regulated importin-beta cargo) - Importin beta complex dissociation; AID 540253, 2011; Potency, µM (series often up to 46.1 µM); Biochemical FRET Rango-importin beta, RanGTP-induced dissociation; actives 0.071% (n = 340,000); further: nearly all actives have a fitted effect of over 45% in size
#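 Quantitative HTS using a FRET biosensor: 0.1 uM Rango, 0.25 uM importin beta, 0.6 uM Ran, 2 mM GTP, 0.2 uM RCC1 final, PBS with DTT, Tween-20 and BSA. Post-read taken 45 min after Ran addition.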
# D3 antag: qHTS of D3 Dopamine Receptor Antagonist: qHTS | D3R cells, DiscoveRx beta-arrestin luminescence, antagonist mode; hits give low values | max response, negative = inhibition, % | actives 2.5% (n = 360,000) | AID 652054, 2013; in the data active means max response below about -50%; inconclusive means no clear call, values can overlap the other calls
#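 Cells plated overnight at 1500 cells/well, then exposed to library compounds with dopamine controls for 90 minutes at 37 degrees C. DiscoveRx reagent added for 30–60 minutes at room temperature; luminescence read, quantitative HTS format.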
# Mm-Cpn inhibitor: Inhibitors of TCP-1 ring complex (TRiC) of Methanococcus maripaludis (MmCpn): qHTS. purified Mm-Cpn ATPase, ADP Transcreener TR-FRET. Potency, µM (highest dose often 76.9 µM), usual class: inhibitors. actives 0.031% (n = 330,000). AID 504842, 2011; active means well fitted inhibition curve with a large enough effect; inconclusive means small, poorly fitted or top-dose-only effect; further: nearly all actives have a fitted effect of over 80% in size
#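 Quantitative HTS used 25 nM Mm-CPN and 10 uM ATP in magnesium/KCl Tris buffer, pH 7.4, with 1 mM DTT. Hydrolysis ran 30 min at 37°C; ADP was read by HTRF.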
# DRD3 agonist: qHTS of D3 Dopamine Receptor Agonist: qHTS | D3R DiscoveRx beta-arrestin cells, luminescence, 90 min | max activation, % | actives 0.58% (n = 410,000); in the data active means max activation above about 30%
#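 Cells at 1500/well, incubated overnight, then treated with pinned compounds (dopamine as control) for 90 min at 37 degrees C. DiscoveRx reagent added for 30 - 60 minutes at room temperature; luminescence read.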
# PTAP TSG101 blk: qHTS Assay for Iinhibitors of HIV-1 Budding by Blocking the Interaction of PTAP/TSG101; 340,000 tested, under 10 active; Fluorescence polarization, FITC-PTAP peptide / Tsg101 binding; AID 493005, 2010; Potency, µM (series often up to 115 µM), most hits filed as inhibitors; active means well fitted inhibition curve with a large enough effect in the main read-out, with a control signal flat, not every such curve was filed as active; inconclusive means small, poorly fitted or top-dose-only effect, or effect the other way, or a change in a side signal; inactive means no such curve, though single readings can be large or run the other way
#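 Compounds were pin-transferred onto Tsg101 binding domain (10 uM final) in HEPES pH 7.5 buffer, then FITC-PTAP peptide was added at 50 nM final. After 20 min at RT, polarization reported peptide displacement across a qHTS concentration series.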
# Hits are given with their value; n = inactive; u = inconclusive; x = not tested or not shown. Most compounds without a hit are left out; they make up all but 2.9% or so of the library. Unless noted, the call rests on the fitted dose curve.
SMILES,Rango complex inh,Rango dissoc inh,D3 antag,Mm-Cpn inhibitor,DRD3 agonist,PTAP TSG101 blk
O=C(/C=C/Nc1ccc(S(=O)(=O)Nc2cnc3ccccc3n2)cc1)c1ccccc1,u,8.2µM,n,n,n,n
CCOc1ccc(CNC(=O)c2cccn2-c2nnc(N3CCCCC3)s2)cc1OC,x,x,x,x,n,x
O=C(O)CCNc1ccc(NCCC(=O)O)c2c1C(=O)c1ccccc1C2=O,u,n,-82,45µM,n,u
COc1ccccc1NCCC(=O)O,n,n,n,n,n,n
CCNC(=O)C1(C)CCCN(Cc2csc3ccccc23)C1 (stereo unspecified),x,x,n,x,n,x
COC(=O)Cc1ccc(OC2(C)CCN(Cc3ccccc3)C2)cc1 (stereo unspecified),x,x,-89,x,n,x
CC1(Oc2ccccc2)CCN(Cc2csc3ccccc23)C1 (stereo unspecified),x,x,-83,x,n,x
CSc1ccc(OC2(C)CCN(Cc3ccccc3)C2)cc1 (stereo unspecified),x,x,-73,x,n,x
CSc1ccc(CN2CCC(C)(Oc3ccc(-n4ccnc4)cc3)C2)cc1 (stereo unspecified),x,x,-97,x,n,x
CC(C)c1ccc(CN2CCC(C)(Oc3ccc(Cl)cc3)C2)cc1 (stereo unspecified),x,x,n,x,n,x
CSc1ccc(CN2CCC(C)(Oc3ccc(CC#N)cc3)C2)cc1 (stereo unspecified),x,x,n,x,n,x
Cc1cc(NC(=O)c2ccc(Br)o2)cc(-c2nc3ccccc3o2)c1O,x,x,x,x,n,x
Cc1ccc(Cn2c(C)c(CNCCCc3ccccc3)c(C(=O)O)c2C)cc1,x,x,x,x,n,x
O=C1O[C@@H]2[C@@H](O)[C@H](O)O[C@@H]2[C@H]1O,x,x,x,x,n,x
COc1ccc(OCC2c3cc(OC)c(OC)cc3CCN2C(=O)c2ccc(F)cc2)cc1 (stereo unspecified),x,x,x,x,n,x
COc1cc([N+](=O)[O-])cc(/C=N/NC(=O)Cn2nccc2C)c1O,n,n,-53,n,n,n
COc1ccc(/C=N/NC(=O)Cn2nc([N+](=O)[O-])cc2C)c(OC)c1OC,n,n,n,n,n,n
COc1cc([N+](=O)[O-])cc(/C=N/NC(=O)CSc2nnc(-c3ccccc3)n2C)c1O,n,n,-52,n,n,n
COc1cc([N+](=O)[O-])cc(/C=N/NC(=O)c2cc(C)nc3ccccc23)c1O,n,n,-56,n,n,n
COc1cc([N+](=O)[O-])cc(/C=N/NC(=O)Cn2nc(C)cc2C)c1O,n,n,-60,n,n,n
COc1cc([N+](=O)[O-])cc(/C=N/NC(=O)c2cc(-c3ccccc3)nc3ccccc23)c1O,u,n,n,n,n,n
CCNC(=O)c1ccc(C23CC4CC(CC(C4)C2)C3)o1,n,n,n,n,n,n
CCN1CCN(c2ncc3c(n2)CCN(Cc2ccccc2C)C3)CC1,x,x,x,x,n,x
CC(C)(Cc1ccccc1)/[N+]([O-])=C\c1ccccc1,n,n,n,n,n,n
Cc1cc2c(c(C)c1CCO[C@@H]1O[C@H](CO)[C@@H](O)[C@H](O)[C@H]1O)C(=O)[C@@H](C)[C@@H]2O,n,n,n,n,n,n
SMILES,Rango complex inh,Rango dissoc inh,D3 antag,Mm-Cpn inhibitor,DRD3 agonist,PTAP TSG101 blk
Cc1cc2c(c(C)c1CCO)C(=O)[C@H](C)C2,n,n,-50,n,n,n
O=C1/C(=C\c2ccc(O)cc2)SC(=S)N1Cc1ccccc1,u,u,-82,n,n,n
O=C(CCN1C(=O)/C(=C/c2ccccc2)SC1=S)Nc1ccccn1,n,15µM,n,n,n,n
O=[N+]([O-])c1cc([N+](=O)[O-])c2cc(-c3cccnc3)[nH]c2c1,u,n,n,x,n,n
Cn1c(SCc2nnc(-c3ccccc3Br)o2)nc2sc3c(c2c1=O)CCC3,n,u,n,n,34,n
Cc1ccc(C2=NN(C(=O)CCC(=O)O)C(c3cccc([N+](=O)[O-])c3)C2)cc1 (stereo unspecified),n,n,-58,n,n,n
CN1CCS/C1=C/C=C1\SC(=S)N(CC(=O)O)C1=O,58µM,u,n,n,n,u
CCCCN1C(=O)/C(=C/C=C2\SCCN2C)SC1=S,52µM,n,n,n,n,u
CC(C)C1C(=O)Nc2ccc(S(=O)(=O)NCCc3ccc(Cl)cc3)cc21 (stereo unspecified),x,x,x,x,n,x
Cc1cccc(NC(=O)/C(C#N)=C/c2ccco2)c1,x,x,x,x,n,x
CCOc1ccc(-n2cc(-c3ccccc3)c3c(N4CCC(C)CC4)ncnc32)cc1,x,x,x,x,n,x
Cc1ccc(NC(=O)Cn2ncn3c(cc4ccccc43)c2=O)cc1C,x,x,x,x,n,x
CC(CN1CCN(CC(C)C(=O)c2ccccc2)CC1)C(=O)c1ccccc1 (stereo unspecified),n,n,-59,x,n,n
O=C(c1ccccc1)C(CN1CCCCC1)c1ccccc1 (stereo unspecified),n,n,-77,x,n,n
O=C(c1ccc(Br)cc1)C(CN1CCOCC1)c1ccccc1 (stereo unspecified),n,n,-88,n,n,n
CCOc1ccc(C(=O)C(CN2CCOCC2)c2ccccc2)cc1 (stereo unspecified),n,n,n,n,n,n
CN(C)CC(C(=O)c1ccccc1)c1ccccc1 (stereo unspecified),n,n,-51,n,n,n
O=C(CC(C(=O)c1ccccc1)c1ccccc1)c1ccccc1 (stereo unspecified),n,n,n,x,n,n
O=C(O)COc1ccc(/C=N/NC(=O)C(O)(c2ccccc2)c2ccccc2)cc1,n,n,n,n,n,n
